Reference: patent publication US20240239772A1, “PROTEASE INHIBITORS AND METHODS OF USE” (The Cleveland Clinic Foundation, priority 2021, published 2024)

Target: SARS-CoV-2 3CLpro (Severe acute respiratory syndrome coronavirus 2 (2019-nCoV) (SARS-CoV-2), UniProt P0DTD1)
Assay type: biochemical

CC(C)CCN(C(=O)Cn1nnc2ccccc21)c1ccc(-c2cccnc2)cc1 [Compound 23, 2-(1H-Benzo[d][1,2,3]triazol-1-yl)-N-isopentyl-N-(4-(pyridin-3-yl)phenyl)acetamide]
IC50: 2.51 ± 0.44 µM
